Results as given in patent US9382265B2, “Oxazolidone compound, preparing method and application thereof” (SHANGHAI INSTITUTE OF MATERIA MEDICA, CHINESE ACADEMY OF …, priority 2013, dated 2016).

Protein sequences, listed by entry. Tags and fused reporters are not part of them. Residues count along the entry.
UniProt P00742, 41-179 partner limits assumed: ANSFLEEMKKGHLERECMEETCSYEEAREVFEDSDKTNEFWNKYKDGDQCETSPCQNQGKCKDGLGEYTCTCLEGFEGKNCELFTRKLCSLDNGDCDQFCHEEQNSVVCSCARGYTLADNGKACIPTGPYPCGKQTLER
UniProt P00742, 235-488 limits assumed: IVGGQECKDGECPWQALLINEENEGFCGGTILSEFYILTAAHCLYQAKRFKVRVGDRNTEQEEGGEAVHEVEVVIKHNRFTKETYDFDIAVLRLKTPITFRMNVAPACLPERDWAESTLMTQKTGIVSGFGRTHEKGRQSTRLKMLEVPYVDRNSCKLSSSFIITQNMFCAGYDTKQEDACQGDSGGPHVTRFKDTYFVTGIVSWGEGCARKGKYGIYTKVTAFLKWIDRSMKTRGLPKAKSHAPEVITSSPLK

Molecular target: T1, human recombinant FXa (Homo sapiens, UniProt P00742)
T1 construct: purchased Calbiochem; host or cells: human plasma
Assay: FXa inhibitory activity assay (chromogenic substrate, 405 nm)
Type: biochemical
Conditions: inhibitory activity on FXa, preincubated at 37° C. for 10 mins
Protocol: Experimental principle and method: FXa cuts the Arg carboxyl end in the substrate N-Z-D-Arg-Gly-Arg-pDA in vitro and releases p-nitrophenylamine which has specific absorption at 405 nm wavelength. The amount of the […] generated is determined at 405 nm to evaluate the activity of the compound to inhibit the human recombinant FXa in vitro.
Human plasma coagulation factor Xa was purchased from Calbiochem; the substrate N-Z-D-Arg-Gly-Arg-pDA was purchased from chromogenic. The subject compound, enzyme and the reaction buffer were mixed and preincubated at 37° C. for 10 mins. The substrate was added. The absorption at 405 nm wavelength was measured continuously over 20 mins. At the same time, a blank control group (without enzyme, 100% inhibition rate) and a negative control group (replace the subject compound with DMSO, 0% inhibition rate) were set up. The reaction system was 100 μl (50 μl of Tris buffer, 10 μl of compound, 20 μl (0.027 U/ml) of enzyme, 20 μl (300 μM) of substrate). Each concentration of each sample was assayed in triplicate. The experiment was carried out for 2 times independently.

Compound: O=C(NC[C@@H]1OC(=O)N2c3ccc(N4CCCCC4=O)cc3OC[C@@H]12)c1ccc(Cl)s1 [Compound 2, 5-chloro-N-(((3S,3aS)-1-oxo-7-(2-oxopiperidin-1-yl)-1,3,3a,4-tetrahydrobenzo[b]oxazolo[3,4-d][1,4]oxazin-3-yl)methyl)thiophene-2-carboxamide]
- IC50: 6.68 ± 0.79 nM
